Laboratory results as given in US7585639B1, “Methods for modulating ATP-binding cassette transmembrane reporter protein expression” (Trustees of Dartmouth College, priority 1999, dated 2009).

Experiments:
[1] = system: Pgp
[2] = system: GFP-Pgp; settings: MDR29 cells
[3] = system: Pgp; settings: MDR29 cells, 48 hours after MMC
[4] = system: Pgp-green fluorescent protein fusion protein; settings: MDCK, cited from earlier work

CO[C@@]12[C@H](COC(N)=O)C3=C(C(=O)C(C)=C(N)C3=O)N1C[C@@H]1N[C@@H]12 [MMC, mitomycin C]
MDR1 mRNA and subsequent Pgp protein expression [1]: significant decrease
time at which Pgp protein levels were at their lowest [1]: 48 to 84 h
total and membrane Pgp [1]: levels well below control
total cellular Pgp levels [1]: unchanged
transient increase in membrane-associated Pgp [1]: approximately two-fold
Pgp levels relative to controls ([2]; by 24 hours, remained low through 72 hours): approximately half
initial increase in membrane GFP-Pgp ([2]; single non-cytotoxic dose, 6-12 hours after treatment): two-fold
daunorubicin accumulation [3]: significant increase
membrane levels of Pgp-GFP ([4]; 6-18 hours after treatment): increase
membrane levels of Pgp-GFP relative to control ([4]; by 40 to 60 hours, then return to normal): half the control value
